The values that follow come from PubChem BioAssay AID1813 (Broad Institute, 2009).

The inhibition is the drop in the measured response relative to a control, in per cent.

Only a part is listed here, and it is no random draw. Active and inactive are the calls of the source. Cut-off read from the data, not from the text of the source: active = inhibition above about 60%; inconclusive = no clear call, values can overlap the other calls; inactive = below that.

A short description of this experiment: 5' untranslated region of α-synuclein, MLPCN primary screen (AID 1813).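 Note: H4 neuroglioblastoma cells stably carrying SNCA 5'UTR luciferase fusion; 0% = DMSO wells and 100% = positive control.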 To be noted: alpha-synuclein 5'UTR reporter, inhibitor activity; active compounds read high; tested at 7.5 µM.
Regarding `CN(C)C(=O)OCCc1n(C)cc[n+]1C`, the inhibition is inactive: -5.18%. As for `CCN(/C(=N/P(=O)(N1CCOCC1)N1CCOCC1)N1CCOCC1)c1ccc(OC)cc1`, the inhibition was inactive: -1.98%.

For the compound `Nc1ccc([As](=O)(O)c2ccc(N)cc2)cc1`, the inhibition is inactive: 13.2%.

As for `C[N+]1=C2C=CC=CC=C2SC12C([N+](=O)[O-])=CC([N+](=O)[O-])=C[C-]2[N+](=O)[O-]` (centres undefined), the inhibition is inactive: -55.9%. As for `Cc1ccc(NP(=O)(Oc2ccccc2)Oc2ccccc2)nc1`, the inhibition is inactive: -23.3%. Next, `O=[N+]([O-])c1cc([N+](=O)[O-])c(CCNc2ccccc2)c([N+](=O)[O-])c1`: inactive: -83.8%; `CCc1nc2c(n1)c1c(non1O)c1c2no[n+]1[O-]`: inactive: -15.3%. On to `CC(=O)N1C2C3N(C(C)=O)C1C1N(C(C)=O)C(C(N1C(C)=O)N3C(C)=O)N2C(C)=O`, for which the inhibition is inactive: 13.3%. Turning to `O=[N+]([O-])c1cccc2n[nH]nc12`, the inhibition is inactive: -14.3%. With `COc1ccc(C2=NCC(CBr)S2)cc1` (centres undefined), the inhibition is inactive: -21.8%.

Take `c1nnnn1CCn1cnnn1`: the inhibition was inactive: 5.31%. With `O=P(Nc1nccs1)(c1ccccc1)c1ccccc1`, the inhibition is inactive: -5.59%. As to `CC(C)C(=O)NC(Sc1ccccc1)C(Cl)(Cl)Cl` (centres undefined), the inhibition is inactive: 14.3%. Turning to `O=C(OC1CN2CCC1CC2)c1cccc(Cl)c1` (centres undefined), the inhibition is inactive: -6.3%. Next, `Nc1ccc([As](=O)(O)c2ccc([N+](=O)[O-])cc2)cc1`: inactive: -1.92%; `C(Cc1nn[nH]n1)Cc1nn[nH]n1`: inactive: 7.84%. As for `O=[As](O)(c1ccccc1)c1ccc(O)cc1`, the inhibition is inactive: 12.4%. Next, `CC(=O)NC(SC(=S)N(C)C)C(Cl)(Cl)Cl` (centres undefined): inactive: -0.937%; `O=[N+]([O-])c1ncn(CCn2cnc([N+](=O)[O-])n2)n1`: inactive: 24.4%; `O=[N+]([O-])c1ccc(O)c(/C=N/Nc2ccc([N+](=O)[O-])cc2[N+](=O)[O-])c1`: inactive: 4.62%.

With `O=P(Nc1nc2ccccc2s1)(c1ccccc1)c1ccccc1`, the inhibition is inactive: -5.08%.

Consider `C[C@H]1OP(=O)(Oc2ccccc2)[C@H](O)[C@H](O)[C@H]1N=[N+]=[N-]` (some centres undefined), for which the inhibition was inactive: 10.1%. `CN(C)C1(CNC(=O)c2ccc(Cl)c(S(N)(=O)=O)c2)CCCCC1`: the inhibition is inactive: -7.34%. Turning to `O=P(Nc1ccccn1)(c1ccc(Br)cc1)c1ccc(Br)cc1`, the inhibition was inactive: -12.9%. Turning to `Cc1ccccc1OP(=O)(Nc1ccccn1)Oc1ccccc1C`, the inhibition is inactive: 4.45%. With `CN(C)C(=O)Oc1noc2ccccc12`, the inhibition was inactive: -11.4%. With `O=C(OC1CN2CCC1CC2)c1ccccc1` (centres undefined), the inhibition was inactive: -20.6%. As for `CCC(=O)N1C2C3N(C(=O)CC)C1C1N(C(=O)CC)C(C(N1C(=O)CC)N3C(=O)CC)N2C(=O)CC`, the inhibition is inactive: -9.34%. With `COC(=O)c1cc2c(s1)N=C(c1ccccc1)N(C)P2(=O)N1CCOCC1` (centres undefined), the inhibition was inactive: -5.33%. For `CC(=O)NC(SC(=S)N(CC(C)C)CC(C)C)C(Cl)(Cl)Cl` (centres undefined), the inhibition is inactive: 16.1%. Consider `Cc1ccc(OP(=O)(Nc2ccccn2)Oc2ccc(C)cc2)cc1`, for which the inhibition was inactive: -4.56%. On to `c1ccc(-c2nn[nH]n2)c(-c2nn[nH]n2)c1`, for which the inhibition was inactive: 14.1%. Take `Cc1ccc(NP(=O)(Oc2cccc(C)c2)Oc2cccc(C)c2)nc1`: the inhibition was inactive: -4.34%. For `CCOC(=O)NC(Sc1ccccc1)C(Cl)(Cl)Cl` (centres undefined), the inhibition was inactive: -15.8%. For `O=C(NC1CCS(=O)(=O)C1)NP(=S)(Oc1ccccc1)Oc1ccccc1` (centres undefined), the inhibition was inactive: 4.29%. Take `CCNC(=S)/N=C(\N)N[N+](=O)[O-]`: the inhibition is inactive: -5.31%. Under `CC(=O)Nc1ccc([As](=O)(O)O)c(O)c1` stands inactive: 2.12%. For the compound `CC(=O)Nc1ccc(Oc2c([N+](=O)[O-])cc([N+](=O)[O-])cc2[N+](=O)[O-])cc1`, the inhibition was inactive: 1.99%.

Take `C[C@@H]1C=CCP(=O)(Oc2ccccc2)O1` (some centres undefined): the inhibition is inactive: -6.2%. For `C[C@H]1OP(=O)(Oc2ccccc2)C[C@@H]2O[C@@H]21` (some centres undefined), the inhibition was inactive: 19.1%. `CC(=O)c1ccc(N2CC2c2ccncc2)cc1` (centres undefined): the inhibition was inactive: 5.42%. In the case of `CC(C)(C)C(=O)NC(Sc1ccccc1)C(Cl)(Cl)Cl` (centres undefined), the inhibition is inactive: 0.0811%.

Take `O=P1(Nc2nc3ccc(Cl)cc3s2)COc2ccccc2O1` (centres undefined): the inhibition was inactive: -25.7%.

Turning to `CCOc1ccc(C2=NCC(CBr)S2)cc1` (centres undefined), the inhibition is inactive: -17.3%.
